Assay results: patent US8779129B2, “Triazinedione derivatives as GABAB receptor modulators” (Addex Pharma S.A., priority 2006, dated 2014)

Protein sequences, listed by entry. Tags and fused reporters are not part of them. Residues count along the entry.
UniProt O88871, 41-940 limits assumed: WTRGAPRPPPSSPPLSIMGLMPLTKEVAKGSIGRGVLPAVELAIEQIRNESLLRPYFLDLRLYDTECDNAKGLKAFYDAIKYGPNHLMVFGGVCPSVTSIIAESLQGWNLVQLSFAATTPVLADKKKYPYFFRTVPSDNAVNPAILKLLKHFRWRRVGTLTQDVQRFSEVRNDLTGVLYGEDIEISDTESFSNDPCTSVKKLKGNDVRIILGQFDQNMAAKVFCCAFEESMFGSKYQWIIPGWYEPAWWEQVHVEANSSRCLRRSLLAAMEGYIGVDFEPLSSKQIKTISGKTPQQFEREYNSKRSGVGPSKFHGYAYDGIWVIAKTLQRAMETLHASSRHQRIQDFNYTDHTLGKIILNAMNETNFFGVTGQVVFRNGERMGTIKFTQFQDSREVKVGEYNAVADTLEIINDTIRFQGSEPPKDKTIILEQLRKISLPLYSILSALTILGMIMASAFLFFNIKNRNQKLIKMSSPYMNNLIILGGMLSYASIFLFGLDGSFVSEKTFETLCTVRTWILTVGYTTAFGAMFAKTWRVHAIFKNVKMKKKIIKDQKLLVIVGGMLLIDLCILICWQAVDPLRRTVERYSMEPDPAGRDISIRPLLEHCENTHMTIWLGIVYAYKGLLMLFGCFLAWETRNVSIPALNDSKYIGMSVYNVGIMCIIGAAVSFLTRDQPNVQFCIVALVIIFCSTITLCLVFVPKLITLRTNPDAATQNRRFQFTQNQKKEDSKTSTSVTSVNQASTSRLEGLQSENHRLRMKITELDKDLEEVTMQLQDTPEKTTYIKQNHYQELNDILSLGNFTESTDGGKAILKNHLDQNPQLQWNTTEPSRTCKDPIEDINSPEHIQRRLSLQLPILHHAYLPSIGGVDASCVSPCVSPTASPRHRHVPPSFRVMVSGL
UniProt Q9Z0U4, 17-960 limits assumed: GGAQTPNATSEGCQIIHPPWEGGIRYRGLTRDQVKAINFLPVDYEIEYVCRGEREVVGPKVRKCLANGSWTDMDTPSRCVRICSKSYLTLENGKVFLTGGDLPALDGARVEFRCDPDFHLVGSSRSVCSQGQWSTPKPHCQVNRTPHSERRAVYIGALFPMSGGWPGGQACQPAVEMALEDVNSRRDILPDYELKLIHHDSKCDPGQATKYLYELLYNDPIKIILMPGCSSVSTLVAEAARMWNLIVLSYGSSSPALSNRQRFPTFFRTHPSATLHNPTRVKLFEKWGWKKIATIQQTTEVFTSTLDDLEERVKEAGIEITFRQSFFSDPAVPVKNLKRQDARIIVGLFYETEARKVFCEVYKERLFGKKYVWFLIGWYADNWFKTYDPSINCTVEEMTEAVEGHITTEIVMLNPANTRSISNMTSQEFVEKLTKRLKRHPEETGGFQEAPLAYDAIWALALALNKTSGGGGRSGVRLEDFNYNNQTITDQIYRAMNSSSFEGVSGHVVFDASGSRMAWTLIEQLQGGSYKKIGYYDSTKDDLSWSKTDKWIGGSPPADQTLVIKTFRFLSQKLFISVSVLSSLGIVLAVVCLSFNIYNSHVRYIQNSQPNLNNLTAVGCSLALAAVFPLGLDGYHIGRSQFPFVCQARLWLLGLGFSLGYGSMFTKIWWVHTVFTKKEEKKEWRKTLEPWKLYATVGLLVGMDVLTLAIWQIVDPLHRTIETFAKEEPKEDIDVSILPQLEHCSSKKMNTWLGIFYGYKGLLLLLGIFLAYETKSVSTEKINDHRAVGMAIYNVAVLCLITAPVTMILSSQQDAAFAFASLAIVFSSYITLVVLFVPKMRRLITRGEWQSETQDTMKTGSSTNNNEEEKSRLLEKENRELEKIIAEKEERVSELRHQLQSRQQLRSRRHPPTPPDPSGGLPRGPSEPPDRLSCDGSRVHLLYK

biological target: native rat GABAB receptors (Rattus norvegicus, UniProt O88871+Q9Z0U4); assay: [35S]GTPγS binding assay using cortical rat brain membranes; details: read-out: EC50 (ability to potentiate an EC50 of GABAB receptor agonist such as Baclofen), in the presence of EC50 of GABAB receptor agonist
Excerpt: The [^35S]GTPγS binding is a functional membrane-based assay used to study G-protein coupled receptor (GPCR) function. This method consists of using a binding assay to assess the initial step in receptor-mediated G protein activation in membranes prepared from cells expressing recombinant GPCR or using membranes from discrete areas of the rat brain. In brief, the assay measures the activation of G proteins by catalyzing the exchange of guanosine 5′-diphosphate (GDP) by guanosine 5′-triphosphate (GTP) at the α subunit. The GTP-bound G proteins dissociate into two subunits, Gα-GTP and Gβγ, which in turn regulate intracellular enzymes and ion channels. GTP is rapidly hydrolysed by the Gα-subunit (GTPases) and the G protein is deactivated and ready for a new GTP exchange cycle (Harper, Curr. Protoc. Pharmacol. 1998, 2.6, 1-10, John Wiley & Sons, Inc.). [^35S]GTPγS, a non-hydrolyzed analogue of GTP, is used for this purpose.
This method is widely used to study receptor activation of G protein in membranes prepared from rat brain tissue, including GABAB receptors (Urwyler et al, The Journal of Pharmacol. and Exp Ther. 2003, 307, 322-330; Olianas et al, Neurochemistry Intern. 2005, 46, 149-158). GABAB receptors are expressed in the rat brain cortex (Odagaki and Yamauchi, Basic Clin. Pharmacol. Toxicol. 2004, 94, 89-98) and are coupled to Gαo/i-protein, a preferential coupling for this method.
[^35S]GTPγS binding assay using cortical rat brain membranes preparation was used and adapted from Olianas et al (Neurochemistry Intern. 2005, 46, 149-158) for the detection of the positive allosteric modulator properties of the compounds of this invention on native rat GABAB receptors.
Cortices were dissected out from brains of 200-300 g Sprague-Dawley rats (Charles River Laboratories, L'Arbresle, France). Tissues were homogenized in 6 volumes (vol/wt) of 10% sucrose at 4° C. using a glass-teflon homogenizer. The homogenate was centrifuged at 1,250 g for 10 min, and the supernatant was centrifuged at 40,000 g for 20 min (4° C.). The pellet was resuspended in 25 ml water using a Polytron disrupter (Kinematica AG, Luzern, Switzerland) and centrifuged for 10 min at 3000 g. (4° C.). The supernatant was centrifuged at 40,000 g for 20 min (4° C.). The supernatant was discarded and the pellet washed twice by resuspension in 10 volumes 5 mM HEPES-KOH, pH 7.4. The homogenate was frozen and thawed twice and centrifuged at 40,000 g for 20 min. The final pellet was resuspended in 5 mM HEPES-KOH, pH 7.4 and stored at −80° C. before its use. Protein concentration was determined by the Bradford method (Bio-Rad protein assay, Reinach, Switzerland) with bovine serum albumin as standard.
Measurement of GABAB receptor positive allosteric modulator properties in rat cortical membranes was performed as follows: rat cortical membrane (1.5 μg) were incubated in 96-well microplates for 15 min at 30° C. in assay buffer (50 mM HEPES pH 7.4, 100 mM NaCl, 5 mM MgCl2, 10 μM GDP, 10 μg/ml saponin, 1 mM CaCl2) with increasing concentrations of positive allosteric modulator (from 1 nM to 60 μM) and a minimal concentration of GABA or Baclofen, a selective GABAB receptor agonist, that has been determined in previous experiments to correspond to the EC50, a concentration that gives 50% of the maximal response of the agonist, and is in accordance with published data (Olianas et al, Neurochemistry Intern. 2005, 46, 149-158). After addition of 0.1 nM [^35S]GTPγS to achieve a total reaction volume of 200 μl, microplates were shaken for 1 min and further incubated at 30° C. for 30 min. The incubation was stopped by rapid vacuum filtration over glass-fiber filter plates (Unifilter 96-well GF/C filter plates, Perkin-Elmer, Schwerzenbach, Switzerland) using a 96-well plate cell harvester (Filtermate, Perkin-Elmer, Downers Grove, USA). The Unifilter plate was washed three times with 300 μl of ice-cold wash buffer (20 mM HEPES pH 7.4, 100 mM NaCl). […]

Structure (SMILES)	EC50 [µM]
COc1nn(-c2ccc(F)c(NC(C)=O)c2)c(=O)n(Cc2ccc(F)cc2)c1=O	0.1 to 0.5
COc1nn(-c2ccc(F)c(NC(C)=O)c2)c(=O)n(Cc2ccc(Cl)c(C(F)(F)F)c2)c1=O	< 0.1
COc1nn(-c2cccc(NC(C)=O)c2)c(=O)n(Cc2cnc(Cl)c(F)c2)c1=O	> 1
COc1nn(-c2ccc(Cl)c(NC(C)=O)c2)c(=O)n(Cc2ccc(F)cc2)c1=O	0.1 to 0.5
COc1nn(-c2ccc(F)cc2)c(=O)n(Cc2ccc(Cl)cc2)c1=O	0.5 to 1
COc1nn(-c2ccc(F)cc2)c(=O)n(Cc2cnc(Cl)c(Cl)c2)c1=O	0.1 to 0.5
COc1nn(-c2ccc(F)c(NC(C)=O)c2)c(=O)n(Cc2ccc(Cl)c(N(C)C)c2)c1=O	< 0.1
COc1nn(-c2ccc(F)cc2)c(=O)n(Cc2ccc(Cl)c(Cl)c2)c1=O	< 0.1
COc1nn(-c2cccc(NC(C)=O)c2)c(=O)n(CCc2ccccc2)c1=O	0.1 to 0.5
COc1nn(-c2cccc(NC(C)=O)c2)c(=O)n(Cc2ccc(C(C)C)nc2)c1=O	> 1
COc1nn(-c2ccc(F)c(NC(C)=O)c2)c(=O)n(Cc2ccc(N3CCOCC3)c(F)c2)c1=O	< 0.1
COc1nn(-c2ccc(Cl)c(NC(C)=O)c2)c(=O)n(Cc2ccc(Cl)c(F)c2)c1=O	< 0.1
COc1cccc(Cn2c(=O)c(OC)nn(-c3ccc(F)c(NC(C)=O)c3)c2=O)c1	> 1
COc1nn(-c2ccc(F)c(NC(C)=O)c2)c(=O)n(Cc2ccc(Cl)c(OC(C)C)c2)c1=O	< 0.1
COc1c(Cl)ccc(Cn2c(=O)c(OC)nn(-c3ccc(F)cc3)c2=O)c1F	< 0.1
COc1nn(-c2ccc(F)c(NC(C)=O)c2)c(=O)n(Cc2ccc3c(c2)OCC3(C)C)c1=O	< 0.1
COc1nn(-c2cccc(NC(C)=O)c2)c(=O)n(Cc2ccc3cnoc3c2)c1=O	< 0.1
COc1nn(-c2cccc(NC(C)=O)c2)c(=O)n(Cc2ccc3c(cnn3C)c2)c1=O	0.1 to 0.5
COc1nn(-c2ccc(Cl)c(NC(C)=O)c2)c(=O)n(Cc2ccc3cnn(C)c3c2)c1=O	< 0.1

Structure (SMILES)	EC50 [µM]
COc1nn(-c2cccc(NC(C)=O)c2)c(=O)n(Cc2ccc(Cl)c(F)c2)c1=O	< 0.1
COc1nn(-c2ccc(F)c(NC(C)=O)c2)c(=O)n(Cc2ccc(F)c(N3CCOCC3)c2)c1=O	< 0.1
COc1nn(-c2ccc(F)c(NC(C)=O)c2)c(=O)n(Cc2cnc(Cl)c(Cl)c2)c1=O	< 0.1
COc1cccc(Cn2c(=O)c(OC)nn(-c3ccc(Cl)c(NC(C)=O)c3)c2=O)c1	< 0.1
COc1nn(-c2ccc(F)c(N(C)C(C)=O)c2)c(=O)n(Cc2ccc(C(F)(F)F)c(F)c2)c1=O	< 0.1
COc1nn(-c2ccc(Cl)c(NC(C)=O)c2)c(=O)n(Cc2ccc3c(c2)CCO3)c1=O	> 1
COc1cc(Cn2c(=O)c(OC)nn(-c3ccc(F)c(NC(C)=O)c3)c2=O)ccc1Br	> 1
COc1nn(-c2ccc(F)c(NC(C)=O)c2)c(=O)n(Cc2ccc(C(C)C)c(F)c2)c1=O	< 0.1
COc1nn(-c2ccc(F)c(NC(C)=O)c2)c(=O)n(Cc2ccc3c(c2)OCCO3)c1=O	0.5 to 1
COc1nn(-c2ccc(Cl)c(NC(C)=O)c2)c(=O)n(Cc2ccc(N(C)C)nc2)c1=O	< 0.1
COc1nn(-c2ccc(F)cc2CC#N)c(=O)n(Cc2ccc(Cl)cc2)c1=O	< 0.1
COc1nn(-c2ccc(F)c(NC(C)=O)c2)c(=O)n(Cc2ccc3c(c2)CCO3)c1=O	0.1 to 0.5
COc1nn(-c2cccc(NC(C)=O)c2)c(=O)n(Cc2ccc(F)c(C(F)(F)F)c2)c1=O	< 0.1
COc1cc(Cn2c(=O)c(OC)nn(-c3cccc(NC(C)=O)c3)c2=O)ccc1C#N	< 0.1
COc1cc(Cn2c(=O)c(OC)nn(-c3ccc(Cl)c(NC(C)=O)c3)c2=O)ccc1Cl	> 1
COc1nn(-c2ccc(F)c(NC(C)=O)c2)c(=O)n(Cc2ccc(F)c(N(C)C)c2)c1=O	< 0.1
COc1nn(-c2cccc(NC(C)=O)c2)c(=O)n(Cc2ccc(Cl)nc2)c1=O	> 1
COc1nn(-c2ccc(Cl)c(NC(C)=O)c2)c(=O)n(Cc2ccc(Cl)c(N(C)C)c2)c1=O	< 0.1
COc1cc(Cn2c(=O)c(OC)nn(-c3ccc(F)c(NC(C)=O)c3)c2=O)ccc1C(C)C	< 0.1
